# Measured affinities in a library of Ab-14 light chain variants

Target peptide (SARS-CoV-2 spike, HR2 region): PDVDLGDISGINAS

Parent: Ab-14, a human scFv built as VH, a 15-residue (Gly4Ser)3 linker, VL. Only the CDRs of the light chain vary.
VH: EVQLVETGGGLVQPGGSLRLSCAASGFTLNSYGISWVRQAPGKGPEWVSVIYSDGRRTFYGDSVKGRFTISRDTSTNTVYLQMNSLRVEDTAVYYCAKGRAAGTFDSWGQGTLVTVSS
VL: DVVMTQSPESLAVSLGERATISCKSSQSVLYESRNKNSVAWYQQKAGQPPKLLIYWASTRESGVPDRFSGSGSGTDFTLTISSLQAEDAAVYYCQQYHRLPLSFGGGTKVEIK

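The starting antibody came from a phage panning campaign against this peptide. The library (AAYL50) carries one to three amino acid substitutions per variant, with no insertions or deletions. In AlphaSeq, yeast of one mating type display the scFv and yeast of the other type display the target. After mating in shaken culture at 30 °C for 16 h, diploids were selected and their barcode pairs sequenced. Scores were corrected for input abundance and mapped to Kd with protein pairs of known affinity run in the same pool. Mating was done three times.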

Positions count from residue 1 of the parent VL; L30N puts N in place of L. Values are apparent Kd, the geometric mean of the replicates that gave a signal; lower means stronger binding. An entry "no signal" has no value in the source: the pair was not observed among the diploids in any replicate. This suggests poor binding but is not conclusive. Parent in this assay: reference entry 4.4 nM, copy in this library 48 nM.

| changes | apparent Kd | seen in |
|---|---|---|
| L30N+S33H+N37F | 59 nM | 3/3 |
| V39N+E61S+S62P | 910 nM | 1/3 |
| N35W+S38G+W56D | 1.5 nM | 3/3 |
| Y31G+E32V+S33I | 16 nM | 3/3 |
| V29D+L30Y+Y31M | 2.9 nM | 3/3 |
| K24H+S38G+R60E | 9.8 µM | 1/3 |
| S58A+Q96T+L100Q | no signal | 0/3 |
| R34T+P101Q | 19 nM | 3/3 |
| K24M+V29D+S62L | 3.8 nM | 3/3 |
| S33F+N35C+Q95S | 35 µM | 3/3 |
| V39M+R60C+H98N | no signal | 0/3 |
| V29I+S58N+H98S | 7.0 nM | 3/3 |
| Q27G+S38P+W56N | 2.2 nM | 3/3 |
| S33Q+A57I+R99A | 18 µM | 3/3 |
| Q27K+R60E+L102I | no signal | 0/3 |
| A40S+A57L+H98G | no signal | 0/3 |
| N37Y+Y97S+H98W | no signal | 0/3 |
| S25L+S58P | no signal | 0/3 |
| K24A+S25Y+V39Q | 38 µM | 2/3 |
| S25P+E61Q+Q96C | 5.1 µM | 1/3 |
| N37W+Q95Y+Q96T | no signal | 0/3 |
| Q27R+S33L+T59M | 3.9 µM | 3/3 |
| K24L+S28P+Q95G | 74 nM | 3/3 |
| S25K+W56R+P101V | no signal | 0/3 |
| R34N+N35R+S103I | 9.0 nM | 3/3 |
| K24A+L30S+R99F | 640 nM | 3/3 |
| S25C+Y31I+H98E | 4.5 nM | 3/3 |
| S33A+A57Y | 100 µM | 2/3 |
| V29L+N35F+L100P | no signal | 0/3 |
| S33Y+S38A+L102D | no signal | 0/3 |
| A57Q+Q96P | 500 nM | 3/3 |
| S33E+W56I+Q96C | 200 µM | 1/3 |
| Q27K+S28C+T59N | no signal | 0/3 |
| Q27R+P101M+L102A | 210 nM | 3/3 |
| K24Q+K36D+L100H | 64 nM | 3/3 |
| R34G+S38G+Y97R | no signal | 0/3 |
| S25W+A40V+P101H | no signal | 0/3 |
| N37S+R99E+L100A | no signal | 0/3 |
| K36C+S38E+E61R | 850 nM | 3/3 |
| E32R+H98N+R99H | 140 nM | 3/3 |
| K24C+S33T+Q95I | 180 µM | 1/3 |
| L30S+N37K | 660 nM | 3/3 |
| K24L+E32W+K36F | 430 µM | 2/3 |
| Y97L+P101H | no signal | 0/3 |
| R34C+Q96V | 53 nM | 3/3 |
| K36C+S58C+T59P | no signal | 0/3 |
| S25F+A57F+S103E | no signal | 0/3 |
| S25C+T59A+R60L | 26 nM | 3/3 |
| S28H+S62P+L102G | 8.3 µM | 3/3 |
| K24P+S58A+R60W | 5.3 µM | 1/3 |
| S33P+R34W+L100N | 390 µM | 1/3 |
| N35H+S58H+L100R | 7.4 µM | 1/3 |
| K36D+V39I+S58V | 7.6 nM | 3/3 |
| S25R+S28I+Q96F | no signal | 0/3 |
| A40W+R60M+H98S | no signal | 0/3 |
| S28V+T59Q+S103H | 380 nM | 3/3 |
| W56T+R60E+E61A | 5.6 µM | 2/3 |
| Y31N+Q96M+Y97I | 85 nM | 3/3 |
| R34G+V39F+T59N | 18 µM | 1/3 |
| S33K+N37M+P101D | 12 µM | 3/3 |
| S33T+R60T | 3.6 µM | 3/3 |
| Q27R+N35Q+W56T | 120 nM | 3/3 |
| S26M+V29W | 10 nM | 3/3 |
| N37T+W56A+Q96I | 6.4 nM | 3/3 |

Extract of 10 entries:

{"changes": "N37T+W56A+Q96I", "apparent Kd": "6.4 nM", "seen in": "3/3"}
{"changes": "R34G+V39F+T59N", "apparent Kd": "18 µM", "seen in": "1/3"}
{"changes": "K24M+V29D+S62L", "apparent Kd": "3.8 nM", "seen in": "3/3"}
{"changes": "S28V+T59Q+S103H", "apparent Kd": "380 nM", "seen in": "3/3"}
{"changes": "V29D+L30Y+Y31M", "apparent Kd": "2.9 nM", "seen in": "3/3"}
{"changes": "A40W+R60M+H98S", "apparent Kd": "no signal", "seen in": "0/3"}
{"changes": "S28H+S62P+L102G", "apparent Kd": "8.3 µM", "seen in": "3/3"}
{"changes": "S33P+R34W+L100N", "apparent Kd": "390 µM", "seen in": "1/3"}
{"changes": "K24A+L30S+R99F", "apparent Kd": "640 nM", "seen in": "3/3"}
{"changes": "S26M+V29W", "apparent Kd": "10 nM", "seen in": "3/3"}

As a blank, each scFv also met three strains without target: over library AAYL50, 18% of these pairings were detected, typically at 15 µM and seldom below 970 nM.

Values reported by Engelhart et al. 2022, doi:10.1038/s41597-022-01779-4 (FLAb copy).